Consider one compound from ChEMBL document CHEMBL1132575 (J Med Chem, 1999).

By UniProt entry, the sequences of proteins in these tests, tags left out.
UniProt P08908, whole entry: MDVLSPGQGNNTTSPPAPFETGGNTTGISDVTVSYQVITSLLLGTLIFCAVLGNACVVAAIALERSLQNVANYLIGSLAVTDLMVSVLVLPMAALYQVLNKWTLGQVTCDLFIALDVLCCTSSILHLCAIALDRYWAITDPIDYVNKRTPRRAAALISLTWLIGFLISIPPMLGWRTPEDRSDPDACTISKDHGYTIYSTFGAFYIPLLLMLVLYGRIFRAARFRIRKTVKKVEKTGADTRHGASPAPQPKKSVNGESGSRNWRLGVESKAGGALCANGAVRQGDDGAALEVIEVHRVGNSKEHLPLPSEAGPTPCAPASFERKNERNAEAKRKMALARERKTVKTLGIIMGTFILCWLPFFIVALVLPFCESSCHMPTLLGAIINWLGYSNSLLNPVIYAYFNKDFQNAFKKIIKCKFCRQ

A word on the Ki: it is the dissociation constant of the complex between target and ligand, obtained from inhibition or displacement. Read a high Ki as a looser hold on the target.

The target of this experiment is 5-hydroxytryptamine receptor 1A (Homo sapiens, UniProt P08908). Nature of the experiment: In vitro receptor binding affinity for cloned human 5-hydroxytryptamine 1A receptor.

The compound `CNS(=O)(=O)Cc1ccc2[nH]cc(CCN(C)C)c2c1` had an inhibition constant Ki of 230 nM.
